The values below come from US11661410B2 (GLOBAL BLOOD THERAPEUTICS, INC., priority 2017, dated 2023).

The target of this test is mu (μ) opiate (OP3) receptor (Homo sapiens (Human), UniProt P35372). Briefly: Safety pharmacological profiling: mu opiate receptor ligand binding. The settings on record: compound at 10 μM, in duplicate; ligand binding to cell membranes.

In the case of `COc1cc2nc3c(c(NC4CCN(C(C)C)CC4)c2cc1OC)CCC3`, the “Mu Opiate percent inhibition” value is recorded as 26%.
